Experimental data: PubChem BioAssay AID588453 (National Center for Advancing Translational Sciences (NCATS), 2011)
Among all 390,000 compounds or so, about 4,000 (1%) were called active. Listed are the inconclusive results; actives and inactives stand elsewhere. Calls come from the whole dose curve; as a rule, active = well fitted inhibition curve with a large enough effect; inconclusive = small, poorly fitted or top-dose-only effect; inactive = no such curve, though single readings can be large or run the other way.

By UniProt entry, the sequences of proteins in these tests, tags left out.
UniProt O89049, whole entry, looked up: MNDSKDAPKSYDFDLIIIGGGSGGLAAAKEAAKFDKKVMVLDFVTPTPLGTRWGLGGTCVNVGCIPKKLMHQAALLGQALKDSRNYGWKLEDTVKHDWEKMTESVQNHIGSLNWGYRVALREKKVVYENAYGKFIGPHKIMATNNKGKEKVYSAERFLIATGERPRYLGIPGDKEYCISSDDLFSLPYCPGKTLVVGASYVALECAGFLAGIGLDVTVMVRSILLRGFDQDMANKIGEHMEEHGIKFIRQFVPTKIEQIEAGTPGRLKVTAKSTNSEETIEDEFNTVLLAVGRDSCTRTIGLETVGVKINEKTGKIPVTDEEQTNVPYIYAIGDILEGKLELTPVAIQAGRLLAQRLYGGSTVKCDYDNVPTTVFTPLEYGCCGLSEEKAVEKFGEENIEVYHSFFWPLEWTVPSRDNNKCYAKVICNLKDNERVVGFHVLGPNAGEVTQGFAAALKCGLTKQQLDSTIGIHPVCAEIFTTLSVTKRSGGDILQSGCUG

What follows are compounds tested against Thioredoxin reductase 1, cytoplasmic (Rattus norvegicus) (UniProt O89049) (assay: qHTS Assay for Inhibitors of Mammalian Selenoprotein Thioredoxin Reductase 1 (TrxR1): qHTS). Details: recombinant rTrxR1, NADPH fluorescence consumption, selenite substrate.
Note: nearly all actives have a fitted effect of over 65% in size.
Potency is the fitted concentration of half-maximal effect.

Row | SMILES | Potency
1 | Cc1ccc(NCCc2c([N+](=O)[O-])cc([N+](=O)[O-])cc2[N+](=O)[O-])cc1 | inconclusive: 70.8 µM
2 | Nc1cccc2c([As](=O)(O)O)cccc12 | inconclusive: 10 µM
3 | CN(C)C(=O)c1cc([N+](=O)[O-])cc2c1-c1c(cc([N+](=O)[O-])cc1[N+](=O)[O-])C2=O | inconclusive: 70.8 µM
4 | CN(C(=O)Cc1ccccc1)[C@@H]1CC[C@]2(CCCO2)C[C@H]1N1CCCC1 | inconclusive: 1.78 µM
5 | CC(C)(C)C(=O)NC(Sc1ncccn1)C(Cl)(Cl)Cl (stereo not given) | inconclusive: 7.08 µM
6 | CCOC(=O)Nc1ccc([As](=O)(O)O)c(O)c1 | inconclusive: 79.4 µM
7 | Cc1cc(SC(NC(=O)c2ccccc2)C(Cl)(Cl)Cl)nc(C(C)C)n1 (stereo not given) | inconclusive: 0.562 µM
8 | O=[N+]([O-])c1ccc(-c2cc([N+](=O)[O-])c(O)c([N+](=O)[O-])c2)cc1 | inconclusive: 31.6 µM
9 | ClCCN(CCCl)c1ccc(CC2C=CC=C2)cc1 | inconclusive: 39.8 µM
10 | O=[N+]([O-])c1cc(Oc2ccc([N+](=O)[O-])cc2C(F)(F)F)cc([N+](=O)[O-])c1 | inconclusive: 89.1 µM
11 | O=C(NC(Sc1ccncn1)C(Cl)(Cl)Cl)c1ccccc1 (stereo not given) | inconclusive: 25.1 µM
12 | Clc1ccc(Cl)c(NC2=NCC(CBr)S2)c1 (stereo not given) | inconclusive: 22.4 µM
13 | O=[N+]([O-])c1cccc(NC2=NCC(CBr)S2)c1 (stereo not given) | inconclusive: 20 µM
14 | COc1cc([N+](=O)[O-])c([N+](=O)[O-])cc1OC | inconclusive: 50.1 µM
15 | CC(=O)Nc1ccc(Oc2c([N+](=O)[O-])cc([N+](=O)[O-])cc2[N+](=O)[O-])cc1 | inconclusive: 20 µM
